Experimental data taken from BindingDB's records for 21866885.

By UniProt entry, the sequences of proteins in these tests, tags left out.
UniProt P41143, whole entry, looked up: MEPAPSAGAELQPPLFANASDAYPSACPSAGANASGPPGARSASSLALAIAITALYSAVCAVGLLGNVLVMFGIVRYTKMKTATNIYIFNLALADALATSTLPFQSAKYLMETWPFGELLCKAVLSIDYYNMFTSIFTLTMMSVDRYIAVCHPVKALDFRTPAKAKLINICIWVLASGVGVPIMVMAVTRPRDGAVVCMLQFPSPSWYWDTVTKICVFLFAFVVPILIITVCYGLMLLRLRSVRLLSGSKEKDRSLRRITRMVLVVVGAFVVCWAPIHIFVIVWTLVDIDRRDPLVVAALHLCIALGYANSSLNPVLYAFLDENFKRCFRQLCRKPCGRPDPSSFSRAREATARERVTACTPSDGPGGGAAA

Target: Delta-type opioid receptor (Homo sapiens, UniProt P41143)
Assay: Displacement of [3H]Cl-DPDPE from human DOP receptor expressed in CHO cells after 60 mins by scintillation counting

Structure (SMILES): CN(C(=O)Cc1ccccc1)[C@H]1C[C@@]2(CCCO2)CC[C@@H]1N1CCCC1
- Ki: > 10 µM
